Results taken from PubChem BioAssay AID2805 (Sanford-Burnham Center for Chemical Genomics, 2010).
The list shows a part of the results, in another mix than the full data. Some tests of the compounds listed are not included; inactive here does not mean inactive elsewhere. Activity calls are given as the source filed them.

System: intestinal alkaline phosphatase [Mus musculus]
Experiment: activators of mouse IAP, primary screen, biochemical, luminescence, uHTS (AID 2805)
Details: muIAP, CDP-Star luminescence, 30 min; at 10 µM; active compounds read high; 1 = vehicle-only enzyme signal, 0 = enzyme-free wells
In short: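 System: Mouse IAP enzyme | Also added: CDP-Star substrate | Dosing: Compounds dispensed in DMSO | Schedule: 30 min enzyme-substrate-compound incubation at room temperature | Technique: Chemiluminescence readout | Control set: DMSO-only wells and no-enzyme negative control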

With `O=C(OC1CN2CCC1CC2)C(CO)(c1ccccc1)c1ccccc1` (centres undefined) as the compound, how does the activation factor read?
Its activation factor is inactive: 1.04.

With `CN(C)c1cccc(C(=O)NCC2(N(C)C)CCCCC2)c1` as the compound, how does the activation factor read?
Its activation factor is inactive: 0.96.

For `CC(C)Oc1ccc(C(=O)NCC2(N(C)C)CCCCC2)cc1`, which activation factor is on record?
The activation factor was inactive: 1.01.

Which activation factor does the source give for `COc1ccc(Br)c(C(=O)NCC2(N3CCCCC3)CCCCC2)c1` here?
The activation factor was inactive: 0.956.

Which activation factor does the source give for `COc1cc(C(=O)NCC2(N(C)C)CCCCC2)c([N+](=O)[O-])cc1OC` here?
The activation factor was inactive: 1.04.

With `CN(C)C1(CNC(=O)c2ccc(Br)cc2)CCCCC1` as the compound, how does the activation factor read?
The activation factor was inactive: 1.12.

Which activation factor does the source give for `O=C(NCC1(N2CCCCC2)CCCCC1)c1cccc(Cl)c1` here?
Its activation factor is inactive: 1.01.

Which activation factor does the source give for `COc1ccc(Cl)cc1C(=O)NCC1(N(C)C)CCCCC1` here?
Its activation factor is inactive: 1.04.

`COc1cccc(C(=O)NCC2(N3CCCCC3)CCCCC2)c1` was tested. Which activation factor did it give?
The activation factor was inactive: 0.934.

For `CN(C)C1CCCC1OC(=O)C(O)(c1ccccc1)c1ccccc1` (centres undefined), which activation factor is on record?
The activation factor was inactive: 1.07.

With `CN(C)c1ccc(C(=O)NCC2(N(C)C)CCCCC2)cc1` as the compound, how does the activation factor read?
The activation factor was inactive: 1.03.

For `Cc1ccccc1C(=O)NCC1(N2CCCCC2)CCCCC1`, which activation factor is on record?
The activation factor was inactive: 1.

With `O=C(NCC1(N2CCCCC2)CCCCC1)c1cccc(Br)c1` as the compound, how does the activation factor read?
The activation factor was inactive: 1.07.

For `Cc1cc(C(=O)NCC2(N3CCCCC3)CCCCC2)ccc1[N+](=O)[O-]`, which activation factor is on record?
The activation factor was inactive: 1.06.

Which activation factor does the source give for `CCN1CCCC(OC(=O)C2(O)c3ccccc3C=Cc3ccccc32)C1` (centres undefined) here?
The activation factor was inactive: 1.

With `COc1ccc(C(=O)NCC2(N(C)C)CCCCC2)cc1` as the compound, how does the activation factor read?
The activation factor was inactive: 1.03.

How did the activation factor turn out when `O=C(NCC1(N2CCCCC2)CCCCC1)c1cc(F)c(F)cc1Cl` was run?
Its activation factor is inactive: 1.

`C=CCN1CCN(CCOC(=O)C(O)(c2ccccc2)c2ccccc2)CC1` was tested. Which activation factor did it give?
The activation factor was inactive: 1.06.

With `CN1[C@@H]2CC[C@H]1CC(OC(=O)C(O)(c1ccccc1)c1ccccc1)C2` (some centres undefined) as the compound, how does the activation factor read?
The activation factor was inactive: 1.05.

With `O=C(NCC1(N2CCCCC2)CCCCC1)c1cc([N+](=O)[O-])ccc1Cl` as the compound, how does the activation factor read?
Its activation factor is inactive: 0.959.

Which activation factor does the source give for `Cc1ccc(C(=O)NCC2(N3CCCCC3)CCCCC2)cc1` here?
The activation factor was inactive: 1.

How did the activation factor turn out when `CC(C)N1C(=O)CC2(CCN(CCOC(=O)C(O)(c3ccccc3)c3ccccc3)CC2)C1=O` was run?
The activation factor was inactive: 1.02.

How did the activation factor turn out when `COc1cc(SC)ccc1C(=O)NCC1(N(C)C)CCCCC1` was run?
Its activation factor is inactive: 1.04.

For `CCN(CC)CC(C)C(C)OC(=O)C(O)(c1ccccc1)c1ccccc1` (centres undefined), which activation factor is on record?
Its activation factor is inactive: 0.982.
